Data reported in patent US11786555B2, “RAR selective agonists in combination with immune modulators for cancer immunotherapy” (IO THERAPEUTICS, INC., priority 2017, dated 2023).

Test system: BM stromal cells
Assay: CYP26A1 expression in BM stromal cells exposed to soluble factors
Assay type: cell-based
Settings: soluble factors tested
Protocol: qRT-PCR. Total RNA was extracted using the RNeasy Mini Kit (QIAGEN) according to the manufacturer's instructions. cDNA was synthesized by reverse transcription using the iScript cDNA Synthesis Kit (Bio-Rad). qRT-PCR was performed with iTaq SYBR Green Supermix (Bio-Rad) using sequence specific primers. Gene expression was normalized to GAPDH, and relative quantification was calculated using ΔΔCt. All experiments were performed in duplicate and run on the Bio-Rad CFX96 machine.
MM cells produce a variety of soluble factors including cytokines (IL-1, IL-3, IL-6, TNF-α) as well as Hedgehog ligands such as sonic hedgehog (SHH), which could impact the BM stromal compartment. Therefore, it was determined whether any of these factors was responsible for the observed upregulation of CYP26A1 on BM stromal cells. […] Consistent with this, there was a statistically significant correlation between the mRNA levels of SHH in MM cells and activation of stromal Hedgehog signaling as determined by protein patched homolog 1 (PTCH1) expression. […] SHH has a half-life of less than 1 hr, which may explain the reduced effect of MM-conditioned media on stromal CYP26A1 expression compared with that observed in coculture and Transwell experiments.

B1: IL-3: cytokine, soluble factor produced by MM cells (protein, UniProt P08700 20-152, looked up)
Interleukin-3: APMTQTTPLKTSWVNCSNMIDEIITHLKQPPLPLLDFNNLNGEDQDILMENNLRRPNLEAFNRAVKSLQNASAIESILKNLLPCLPLATAAPTRHPIHIKDGDWNEFRRKLTFYLKTLENAQAQQTTLSLAIF
- expression of CYP26A1 on BM stromal cells: no significant effects
